pIC50: −log10 of the molar value.
Molecular target: Cyclin-dependent kinase 1/cyclin B1 (Homo sapiens, UniProt P06493+P14635)
Experiment: Inhibition of CDK1/cyclin B

Amino acid sequences for entries named in this document (tags omitted).
UniProt P06493, whole entry, looked up: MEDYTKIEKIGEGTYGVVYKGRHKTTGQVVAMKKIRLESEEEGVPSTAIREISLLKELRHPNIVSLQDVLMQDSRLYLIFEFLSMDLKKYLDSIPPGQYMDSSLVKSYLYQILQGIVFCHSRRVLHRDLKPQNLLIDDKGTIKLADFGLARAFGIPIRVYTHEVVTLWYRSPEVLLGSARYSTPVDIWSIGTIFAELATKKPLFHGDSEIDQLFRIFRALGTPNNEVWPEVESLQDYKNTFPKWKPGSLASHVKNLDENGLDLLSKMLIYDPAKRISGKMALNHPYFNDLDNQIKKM
UniProt P14635, whole entry, looked up: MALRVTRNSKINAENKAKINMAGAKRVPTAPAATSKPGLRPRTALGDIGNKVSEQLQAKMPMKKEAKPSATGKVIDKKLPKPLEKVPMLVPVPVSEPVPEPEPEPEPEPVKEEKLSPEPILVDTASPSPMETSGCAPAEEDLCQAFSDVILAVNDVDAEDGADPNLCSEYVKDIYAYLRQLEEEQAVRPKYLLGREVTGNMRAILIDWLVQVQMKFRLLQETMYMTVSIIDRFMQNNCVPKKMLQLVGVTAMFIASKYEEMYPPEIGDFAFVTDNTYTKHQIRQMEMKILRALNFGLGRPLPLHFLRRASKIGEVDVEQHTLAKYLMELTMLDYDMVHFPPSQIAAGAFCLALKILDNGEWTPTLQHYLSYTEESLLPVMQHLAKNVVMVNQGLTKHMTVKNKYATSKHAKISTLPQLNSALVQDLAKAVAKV

Compound | pIC50
O=C1Nc2cc(Br)ccc2C1=C1Nc2ccccc2C1=NOCCN1CCN(CCO)CC1 | 6.52
O=C1Nc2cc(Br)ccc2/C1=C1/Nc2ccccc2/C1=N\OCCN1CCNCC1 | 6.22

From BindingDB's records for doi:10.1021/jm800648y (University of Athens, 2008)
